Results on one substance are retold here after paper PMC3052287 (Psychopharmacology, 2010).

By UniProt entry, the sequences of proteins in these tests, tags left out.
UniProt P34969, whole entry: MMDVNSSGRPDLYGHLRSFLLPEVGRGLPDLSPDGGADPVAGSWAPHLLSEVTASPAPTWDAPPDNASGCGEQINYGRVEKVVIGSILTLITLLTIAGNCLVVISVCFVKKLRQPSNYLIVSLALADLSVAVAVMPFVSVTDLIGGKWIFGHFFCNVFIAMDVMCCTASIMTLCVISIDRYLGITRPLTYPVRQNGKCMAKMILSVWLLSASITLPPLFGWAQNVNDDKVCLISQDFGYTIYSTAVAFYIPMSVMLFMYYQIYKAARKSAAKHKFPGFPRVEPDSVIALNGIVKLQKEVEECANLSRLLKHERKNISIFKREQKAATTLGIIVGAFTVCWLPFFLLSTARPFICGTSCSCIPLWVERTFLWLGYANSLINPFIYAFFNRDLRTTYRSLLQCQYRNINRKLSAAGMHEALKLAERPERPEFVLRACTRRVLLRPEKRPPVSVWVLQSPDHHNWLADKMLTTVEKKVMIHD

For experiment [1], the target named is T1, h5-HT7 receptor (Homo sapiens, UniProt P34969). The settings on record: cited from earlier work.
In experiment [2] the target is T1, h5-HT7 receptor.
Experiment [3] concerns the target T1, h5-HT7 receptor. Particulars: cited from earlier work. The source holds these as a separate data set.

methiothepin: the “share of h5-HT7 binding sites bound in a wash-resistant manner” value at h5-HT7 receptor [1] was “all the h5-HT7 receptors”. Further, the “wash-resistant inhibition of [3H]5-HT binding” value on h5-HT7 receptor [2] is “all of the binding”. Further, the “inactivation of the h5-HT7 receptor (loss of 5-HT-stimulated cAMP accumulation)” value at h5-HT7 receptor [3] is “inactivate the h5-HT7 receptor”.
